Source: patent US20190119394A1

Target: Death receptor 5 (DR5) on primary human pancreatic stellate cells (human) (UniProt O14763)
Assay: cell-based or functional assay

## conatumumab (human anti-DR5 antibody, Creative Biolabs)
  caspase-3/7 activity (apoptosis marker), culture-activated PSCs, 10^3 ng/mL: 10.8 fold
